According to patent US20090227673A1, “Method and Composition for the Treatment of Parkinson's Disease” (priority 2006, published 2009):

Molecular target: T1, human COMT (Homo sapiens, UniProt P21964)
T1 construct: from tissue; host or cells: human liver cytosol (preparations HL4C, HL9C, HL8C)
T1 sequence (P21964 1-221 isoform P21964-2): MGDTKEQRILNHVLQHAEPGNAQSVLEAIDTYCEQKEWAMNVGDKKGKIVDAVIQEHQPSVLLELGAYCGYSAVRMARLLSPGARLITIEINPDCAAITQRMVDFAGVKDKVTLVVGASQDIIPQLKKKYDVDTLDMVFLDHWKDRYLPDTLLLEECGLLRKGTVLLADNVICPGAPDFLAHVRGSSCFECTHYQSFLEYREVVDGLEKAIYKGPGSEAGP
Experiment: Inhibition of human liver COMT-mediated o-methylation of catecholamines (human liver cytosol, [3H-methyl]AdoMet)
Assay type: biochemical
Settings: read-out: IC50, inhibition of human COMT-mediated o-methylation of L-DOPA and other catecholamines; 10 μM catecholamine substrate, 250 μM AdoMet, 0.25 mg/mL human liver cytosolic protein, 37° C., 10 min, pH 7.4

## O=C(O[C@@H]1Cc2c(O)cc(O)cc2O[C@@H]1c1cc(O)c(O)c(O)c1)c1cc(O)c(O)c(O)c1 [EGCG, (−) epigallocatechin-3-o-gallate catechin]
  IC50: 20 to 70 nM
